{"source": "paper PMC5011932", "about": "“Comparative pharmacokinetics and pharmacodynamics of intravenous artelinate versus artesunate in uncomplicated Plasmodium coatneyi-infected rhesus monkey model” (Malaria Journal, 2016)", "test": "Plasma pharmacokinetics by HPLC-ECD after IV dose in rhesus monkeys", "settings": "combined parent + metabolite; infected rhesus"}
{"compound": "CC1CCC2C(C)C(OCc3ccc(C(=O)O)cc3)OC3OC4(C)CCC1C32OO4.CC1CCC2C(C)C(OCc3ccc(C(=O)O)cc3)OC3OC4(C)CCC1C32OO4.O", "note": "(stereo not shown) [IV AL, 4-(10′ dihyro-artemisinin-oxymethyl) benzoic acid hemihydrate]", "values": [{"measurement": "% AUC0–20 / AUC0–∞", "value": 21.4, "unit": "%"}]}
